# Values of other authors as cited in article PMC5600712 (ACS chemical biology, 2017).
# Target: HDAC6
# Settings: class IIb HDAC6-HC toxin complex
substance,measurement,value
HC toxin,Ki,350 nM
